Patent US20220251084A1, “PROGRANULIN MODULATORS AND METHODS OF USING THE SAME” (ARKUDA THERAPEUTICS, priority 2019, published 2022)

Tested on: progranulin (PGRN) secretion, BV-2 cells
Test: PGRN assay: progranulin induction cellular assay (ELISA of secreted mouse PGRN)
Type: cell-based
Conditions: Table C, secreted mouse PGRN in cell culture medium

O=C(O[C@@H]1CN2CCC1CC2)C(=O)N1CCc2ccccc2[C@@H]1c1ccc(F)cc1
EC50: > 10 µM
